# Experimental data as given in patent US20080076729A1, “Interferon-beta gene therapy using an improved, regulated expression system” (Schering Aktiengesellachaft, priority 2005, published 2008).
# Legend:
# [1] = mice, rats and monkeys; cited from earlier work
# [2] = Pharmacokinetic study of bolus recombinant hIFN-β1a protein, serum hIFN-β by ELISA
Substance,half-life [1],"difference in serum hIFN-β1a level between the high and low dose ([2]; i.v. and i.m., 250 ng vs 25 ng)",decrease of hIFN-β1a serum level from maximum by 6 hours ([2]; single i.m. injection),"time at which hIFN-β1a serum level reached a maximum level post-injection ([2]; single i.m. injection, 25 ng or 250 ng)","hIFN-β1a serum level by 6 hours ([2]; single i.v. injection, LOD=12.5 pg/ml)"
PEGylated form of IFN-β1a: IFN-β1a with attachment of a 20-kDa polymer of polyethylene glycol [reference compound],10 h,–,–,–,–
hIFN-β1a: recombinant human interferon-β 1a protein,approximately 1 hours,10 fold,approximately 10 fold,2 h,near the limit of detection
